{
  "sequences": {"note": "Protein sequences, listed by entry. Tags and fused reporters are not part of them.", "UniProt Q01970, whole entry": "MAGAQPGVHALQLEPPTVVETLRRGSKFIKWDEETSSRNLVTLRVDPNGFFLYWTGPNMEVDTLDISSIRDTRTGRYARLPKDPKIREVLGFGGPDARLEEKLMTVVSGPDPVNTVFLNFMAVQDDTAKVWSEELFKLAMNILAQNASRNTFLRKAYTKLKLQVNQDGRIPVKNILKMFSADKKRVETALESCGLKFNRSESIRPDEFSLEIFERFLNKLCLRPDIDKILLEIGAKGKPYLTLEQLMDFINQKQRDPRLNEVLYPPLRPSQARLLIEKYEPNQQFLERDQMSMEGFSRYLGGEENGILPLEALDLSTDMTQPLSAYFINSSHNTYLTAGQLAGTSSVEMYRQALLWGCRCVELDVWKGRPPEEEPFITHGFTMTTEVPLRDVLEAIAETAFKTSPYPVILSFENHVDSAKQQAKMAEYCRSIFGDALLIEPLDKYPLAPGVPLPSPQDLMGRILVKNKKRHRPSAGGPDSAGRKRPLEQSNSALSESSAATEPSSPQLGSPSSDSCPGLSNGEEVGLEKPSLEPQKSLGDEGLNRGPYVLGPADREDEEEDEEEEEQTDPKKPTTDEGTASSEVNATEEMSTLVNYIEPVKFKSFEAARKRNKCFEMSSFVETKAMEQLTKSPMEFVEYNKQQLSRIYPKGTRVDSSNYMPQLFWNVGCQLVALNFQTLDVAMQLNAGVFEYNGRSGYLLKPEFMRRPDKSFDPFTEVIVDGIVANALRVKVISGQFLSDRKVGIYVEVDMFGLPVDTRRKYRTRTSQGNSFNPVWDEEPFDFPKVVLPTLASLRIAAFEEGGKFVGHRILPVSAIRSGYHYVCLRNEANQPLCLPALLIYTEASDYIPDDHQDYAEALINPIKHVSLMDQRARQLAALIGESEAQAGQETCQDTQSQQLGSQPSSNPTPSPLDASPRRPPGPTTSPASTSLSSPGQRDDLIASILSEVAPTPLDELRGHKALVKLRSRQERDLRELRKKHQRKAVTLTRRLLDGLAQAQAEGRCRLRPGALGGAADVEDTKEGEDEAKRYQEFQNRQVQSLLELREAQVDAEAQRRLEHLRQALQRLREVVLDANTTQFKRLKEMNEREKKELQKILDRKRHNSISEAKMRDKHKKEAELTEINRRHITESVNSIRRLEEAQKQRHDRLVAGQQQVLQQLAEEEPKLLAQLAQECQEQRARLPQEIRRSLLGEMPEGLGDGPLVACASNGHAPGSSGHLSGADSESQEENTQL"},
  "source": "PubChem BioAssay AID720704",
  "about": "(The Scripps Research Institute Molecular Screening Center, 2013)",
  "note": "This is a selection; strong and weak results do not stand in their true shares. Activity calls are given as the source filed them. No stated cut-off is given here; in the data, active means inhibition above about 11%; inactive means the rest.",
  "data": [
    {"molecular_target": "1-phosphatidylinositol 4,5-bisphosphate phosphodiesterase beta-3 (Homo sapiens) (UniProt Q01970)", "assay": "phospholipase C beta3 enzyme inhibition – biochemical, fluorescence, primary screen (AID 720704);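 further: 0% = median of compound wells on plate and 100% = full blocker control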", "details": "Purified PLC-beta3, fluorogenic substrate, at 12.2 µM, hits give high values", "values": [
      {"smiles": "CCC(=O)N(c1ccccc1)C1(COC)CCN(CCn2nnn(CC)c2=O)CC1", "inhibition": "inactive: -0.59%"},
      {"smiles": "CCC(=O)N(c1ccccc1)C1(COC)CCN(CCc2cccs2)CC1", "inhibition": "inactive: 0.1%"}
    ]}
  ]
}
